Measured values: the DeepSol protein solubility set

Test: soluble on expression in E. coli; label from the status in PepcDB or PDB records

Row | Sequence | soluble on expression in E. coli
1 | HHHHHHHHHHMEELNIDFDVFKKRIELLYSKYNEFEGSPNSLLFVLGSSNAENPYQKTTILHNWLLSYEFPATLIALVPGKVIIITSSAKAKHLQKAIDLFKDPESKITLELWQRNNKEPELNKKLFDDVIALINSAGKTVGIPEKDSYQGKFMTEWNPVWEAAVKENEFNVIDISLGLSKVWEVKDVNEQAFLSVSSKGSDKFMDLLSNEMVRAVDEELKITNAKLSDKIENKIDDVKFLKQLSPDLSALCPPNYKFNFDLLDWTYSPIIQSGKKFDLRVSARSTNDQLYGNGCILASCGIRYNNYCSNITRTFLIDPSEEMANNYDFLLTLQKEIVTNILKPGRTPKEVYESVIEYIEKTKPELVPNFTKNIGSLIGLEFRDSNFILNVKNDYRKIQRGDCFNISFGFNNLKDSQSANNYALQLADTVQIPLDETEPPRFLTNYTKAKSQISFYFNNEEEDNNKKKSSPATKVPSKPDRNSKILRTKLRGEARGGAEDAQKEQIRKENQKKLHEKLEKNGLLRFSAADANGPDSEPRQYFKKYESYVRDSQLPTNIRDLRIHVDWKSQTIILPIYGRPVPFHINSYKNGSKNEEGEYTYLRLNFNSPGSSGGISKKVEELPYEESADNQFVRSITLRSKDGDRMSETFKQIADLKKEATKREQERKALADVVQQDKLIENKTGRTKRLDQIFVRPNPDTKRVPSTVFIHENGIRFQSPLRTDSRIDILFSNIKNLIFQSCKGELIVVIHIHLKNPILMGKKKIQDVQFYREASDMSVDETGGGRRGQSRFRRYGDEDELEQEQEERRKRAALDKEFKYFADAIAEASNGLLTVENTFRDLGFQGVPNRSAVFCMPTTDCLVQLIEPPFLVINLEEVEICILERVQFGLKNFDMVFVYKDFNKPVTHINTVPIESLDFLKQWLTDMDIPYTVSTINLNWATIMKSLQDDPYQFFLDGGWNFLATGSDDEASDESEEEVSEYEASEDDVSDESAFSEDEEGSEVDDDISGDESEDYTGDESEEGEDWDELEKKAARADRGANFRD | not soluble
2 | GTEPTTAFNLFVGNLNFNKSAPELKTGISDVFAKNDLAVVDVRIGMTRKFGYVDFESAEDLEKALELTGLKVFGNEIKLEKPKGKDSKKERDARTLLAKNLPYKVTQDELKEVFEDAAEIRLVSKDGKSKGIAYIEFKTEADAEKTFEEKQGTEIDGRSISLYYTGEPKGEGLEHHHHHH | soluble
